Measurements: US9156855B2, “Regulation of nitric oxide release and biofilm development” (Newsouth Innovation Pty Limited, priority 2011, dated 2015)

Legend:
[1] = system: β-lactamase (penicillinase, Sigma Aldrich); experiment: Amperometric nitric oxide release on exposure to penicillinase; type: biochemical
[2] = system: extracellular β-lactamases of P. aeruginosa; type: biochemical
[3] = system: β-lactamase expressing P. aeruginosa cell extracts; conditions: Tris buffer pH 7.0, cell extract of ampicillin-induced cells
[4] = system: non-β-lactamase-expressing E. coli cell extracts; conditions: Tris buffer pH 7.0, cell extract
[5] = system: P. aeruginosa PAO1 biofilms; conditions: 100 μM, continuous flow, M9 minimal medium
Excerpt: FIG. 9. […] Data is representative of two independent experiments.

[6] = system: P. aeruginosa FRD1 biofilms; conditions: 100 μM, 10 min, biofilms grown for 24 h
[7] = system: P. aeruginosa PAO1 wild type biofilms; experiment: Biofilm dispersal assay, 24-well batch culture, PAO1; type: cell-based
[8] = system: P. aeruginosa PAO1 wild type cells; experiment: Planktonic growth inhibition, minimum inhibitory concentration; type: cell-based; conditions: Pseudomonas aeruginosa, PAO1, 20 h
[9] = system: P. aeruginosa biofilms; conditions: 10 μM and 100 μM, 15 min, imipenem 0.5 μg/mL 1 h pre-treatment
[10] = system: P. aeruginosa biofilm and planktonic cells
Excerpt: FIG. 11. […] Error bars indicate standard error; n=2.
Planktonic growth was quantified at various time points by direct measurement of OD600 of the supernatant. […] For each time point, planktonic bacteria were collected, serially diluted in sterile phosphate-buffered saline (PBS) and spread on LB agar plates. Biofilms were gently rinsed once with PBS and resuspended from the wall and bottom well surfaces (total surface area=4.4 cm^2) using a sterile cotton swab. Bacterial aggregates were further disrupted in a bath sonicator for 10 min. Biofilm bacteria were then serially diluted and spread on LB agar plates. Colony forming units (CFU) were determined after 1 day incubation at 37° C.

[11] = system: P. aeruginosa NSGFP reporter strain (nirS-GFP); type: cell-based
[12] = system: Vibrio cholerae biofilms; conditions: 10 min after treatment
[13] = system: Serratia marcescens biofilms; conditions: 10 min after treatment
[14] = system: Staphylococcus aureus biofilms; conditions: 10 min after treatment
[15] = system: P. aeruginosa MA67 biofilms; conditions: imipenem 0.5 μg/mL 1 h pre-treatment, 15 mins exposure, crystal violet
[16] = system: Escherichia coli biofilms; conditions: 10 min after treatment
[17] = 10 min exposure, compared to untreated controls

CCN(CC)/[N+]([O-])=N/OCC1=C(C(=O)O)N2C(=O)C(NC(=O)Cc3ccccc3)C2SC1 (stereo not shown) [Compound 15]
release of nitric oxide triggered by penicillinase, effect of pH ([1]; between pH 5 and 7): varies slightly
release of nitric oxide triggered by penicillinase, effect of pH ([1]; pH 9): greatly reduced
nitric oxide release after addition of ampicillin ([2]; 500 μl of 100 μg/ml ampicillin added to imipenem-treated cells supernatant): did not inhibit nitric oxide release
nitric oxide release ([2]; supernatant of culture pre-treated with imipenem 0.5 μg/ml 1 h): trigger release of nitric oxide
nitric oxide release [3]: nitric oxide is released
nitric oxide release [4]: smaller yet measurable release of nitric oxide

CCN(CC)/[N+]([O-])=N/OCC1=C(C(=O)O)N2C(=O)C(NC(=O)Cc3ccccc3)C2SC1 (stereo not shown) [Compound 21]
released cells (OD600 of the effluent) [5]: rapid and significant increase in released cells
dispersal (CV staining) [6]: 30%
biofilm biomass reduced (CV staining) [7, 17]: 55%
planktonic biomass increased (OD600nm of supernatants) [7, 17]: 20%
biofilm dispersal, dose dependence ([7]; range 10-100 μM, 10 min): induces dispersal in a dose dependent manner
MIC [8]: 4 mM (≈ 1850 µg/mL)
biofilm dispersion after induction of extracellular β-lactamase [9]: enhanced biofilm-dispersion effects
biofilm CFU ([10]; 100 μM alone, 1 h treatment, untreated 1.9×10^8): 1.3×10^8 CFU per well
planktonic CFU ([10]; 100 μM alone, 1 h treatment, untreated 4.8×10^8): 11×10^8 CFU per well
efficacy of 10 μM ceftazidime against both biofilm and planktonic bacteria in the presence of Compound 21 ([10]; 1 h, compared to ceftazidime alone): increased
increase in efficacy of ceftazidime against biofilm bacteria in the presence of Compound 21 ([10]; 2 h treatments, compared to without Compound 21): 2.3 fold
GFP-response ([11]; 150 μM alone, cells with or without pre-activation of β-lactamase activity, 2 h): GFP-response greater than the response triggered by SNP
cleavage and nitric oxide availability to bacteria (GFP response) ([11]; β-lactamase induced by subinhibitory ampicillin (50 μg/ml)): enhanced
biofilm dispersal [12]: induces rapid dispersal
biofilm dispersal [13]: induces rapid dispersal
biofilm dispersal [14]: induces rapid dispersal
dispersal of pre-established biofilms, dose dependence [15]: dose dependent
biofilm dispersal [16]: induces rapid dispersal

O=C(Cc1ccccc1)NC1C(=O)N2C(C(=O)O)=C(CO/N=[N+](\[O-])N3CCCC3)CSC12 (stereo not shown) [Compound 23]
dispersal of pre-established biofilms, dose dependence [15]: dose dependent

Converted amounts (≈) assume the structure as drawn.
